For 57 compounds, inhibition results are on record in PubChem BioAssay AID485317 (Broad Institute, 2010).

Protein sequences, listed by entry. Tags and fused reporters are not part of them.
UniProt P55789, whole entry: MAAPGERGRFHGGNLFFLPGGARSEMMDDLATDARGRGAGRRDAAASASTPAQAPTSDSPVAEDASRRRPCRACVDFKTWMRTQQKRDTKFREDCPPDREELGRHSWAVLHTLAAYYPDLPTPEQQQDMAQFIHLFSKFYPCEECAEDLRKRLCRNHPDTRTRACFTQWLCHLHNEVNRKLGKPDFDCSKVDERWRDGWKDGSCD

SMILES strings stand for the structures. This is a selection; strong and weak results do not stand in their true shares. Calls of active or inactive are those of the source.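 Rule for the calls: active = mean replicate inhibition above about 79%, with every replicate also reaching it (limit read from the data); inconclusive = only one of the two criteria met; inactive = mean below limit and not every replicate reaching it.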

This test addresses FAD-linked sulfhydryl oxidase ALR (Homo sapiens) (UniProt P55789). Nature of the test: inhibitors of human ALR sulfhydryl oxidase, primary screen, biochemical, H2O2 detection, HRP-luminol luminescence, single point (AID 485317). To be noted: purified ALR, DTT oxidation, stronger effect = higher value, concentration not given here.
For orientation: inhibition means the relative decrease from the control value, in per cent. As for `O=C(OC1CN2CCC1CC2)C1c2ccccc2C=Cc2ccccc21` (configuration not stated), the inhibition is inactive: -20.5%.

Take `CCc1cc(C(=O)NCC2(N3CCCCC3)CCCCC2)sc1C`: the inhibition was inactive: -12.9%. `CCOC(=O)N1CCC(Nc2ccc(C)cc2)CC1`: the inhibition is active: 97.7%.

`N/C(=N\O)c1c(N)no[n+]1[O-]`: the inhibition is inactive: 2.38%. For the compound `COc1ccc(C(=O)NCC2(N3CCOCC3)CCCCC2)cc1OC`, the inhibition was inactive: -12.2%. As to `O=C(NCC1(N2CCOCC2)CCCCC1)c1cc(Br)ccc1Cl`, the inhibition is inactive: -3.17%.

With `CN(C)C1(CNC(=O)c2cccc(C#N)c2)CCCCC1`, the inhibition is inactive: 16.4%. On to `c1ccc(CN2CCC(Nc3ccccc3)CC2)cc1`, for which the inhibition was active: 89.6%. Turning to `CCCN1CCC(Nc2cc(OC)cc(OC)c2)CC1`, the inhibition was inactive: 67.6%. The same measure for `N#Cc1ccc(C(=O)NCC2(N3CCCCC3)CCCCC2)cc1`: inactive: -0.87%; for `CN(C)c1ccc(C(=O)NCC2(N3CCCCC3)CCCCC2)cc1`: active: 93.5%; for `Cc1ccc(C(=O)NCC2(N3CCCCC3)CCCCC2)o1`: inactive: -2.46%. Under `Fc1ccccc1NC1CCN(Cc2ccccc2)CC1` stands inactive: 17.1%. In the case of `CN1CCC(Nc2ccc(Cl)cc2)CC1`, the inhibition is inactive: 59%. On to `CCCOc1ccc(C)cc1CN(CCCl)CCCl`, for which the inhibition is inactive: 35.8%. Under `COc1cc(OC)cc(C(=O)NCC2(N3CCOCC3)CCCCC2)c1` stands inactive: 7.18%; under `COc1cccc(C(=O)N(c2cc(C)cc(C)c2)C2CCN(C(=O)OC(C)(C)C)CC2)c1`, inactive: -14.2%. Take `CCC(CO)(C(=O)OC1CN2CCC1CC2)c1ccccc1` (configuration not stated): the inhibition is inactive: 2.95%. Under `CC(C)(C)OC(=O)N1CCC(Nc2ccccc2)CC1` stands inactive: 52.4%. Consider `CCCOc1ccc(C(=O)NCC2(N(C)C)CCCCC2)cc1`, for which the inhibition was inactive: -24.4%. Under `CCOc1ncccc1C(=O)NCC1(N2CCOCC2)CCCCC1` stands inactive: -16.7%.

With `CN1CCC(Nc2ccc(F)c(Cl)c2)CC1`, the inhibition is inactive: 35.4%. Turning to `O=C(OC1CN2CCC1CC2)C1c2ccccc2Oc2ccccc21` (configuration not stated), the inhibition is inactive: -30.8%. The same measure for `O=C(NCC1(N2CCCCC2)CCCCC1)c1ccc(Cl)s1`: inactive: -1.84%. The same measure for `N#CC1(Nc2ccccc2)CCN(Cc2ccccc2)CC1`: inactive: -3.67%; for `COc1ccc(Cl)cc1C(=O)NCC1(N2CCOCC2)CCCCC1`: inactive: -3.59%; for `CCOC(=O)N1CCC(Nc2ccc(OC)cc2)CC1`: active: 98.3%. Under `O=C(NCC1(N2CCCCC2)CCCCC1)c1ccc(Cl)nc1` stands inactive: -7.41%; under `Cc1cc(C)cc(N(C(=O)c2ccccc2)C2CCN(C(=O)OC(C)(C)C)CC2)c1`, inactive: -7.48%; under `O=C(NCC1(N2CCOCC2)CCCCC1)c1cc2ccccc2o1`, inactive: -8.63%. Consider `CSc1ccccc1C(=O)NCC1(N2CCCCC2)CCCCC1`, for which the inhibition was inactive: -15.4%.

As to `COc1ccc(C(=O)NCC2(N3CCCCC3)CCCCC2)cc1`, the inhibition was inactive: 3.93%. Under `COc1ccc(C(=O)NCC2(N3CCCCC3)CCCCC2)c(OC)c1OC` stands inactive: -5.6%; under `CC(C)(C)OC(=O)N1CCC(N(C(=O)c2ccccc2)c2ccc(F)cc2)CC1`, inactive: -5.78%. Under `O=C(NCC1(N2CCCCC2)CCCCC1)c1ccc(=O)[nH]c1` stands inactive: -4.86%. In the case of `O=C(NCC1(N2CCCCC2)CCCCC1)c1cccs1`, the inhibition was inactive: -0.742%. For the compound `COc1cc(C(=O)NCC2(N(C)C)CCCCC2)ccc1OC(F)F`, the inhibition is inactive: 0.793%. As to `CCOC(=O)N1CCC(Nc2cccc(C)c2)CC1`, the inhibition was active: 98.4%. Under `Cc1ccc(OCC(C)C)c(CN(CCCl)CCCl)c1` stands inactive: 11.8%; under `O=C(NCC1(N2CCCCC2)CCCCC1)c1ccc(F)cc1`, inactive: -8.98%; under `COc1ccc(NC2CCN(CCc3ccccc3)CC2)c(OC)c1`, active: 99.3%. In the case of `CCOC(=O)N1CCC(Nc2ccc(F)cc2)CC1`, the inhibition was active: 99.3%. The same measure for `CCOc1ccc(C)cc1CN(CCCl)CCCl`: inactive: 26.4%; for `COc1cc(C(=O)NCC2(N3CCCCC3)CCCCC2)ccc1OC(F)F`: inactive: -2.32%; for `O=C(NCC1(N2CCOCC2)CCCCC1)c1cc(=O)[nH]c2ccccc12`: inactive: -8.66%. As to `CN1CCN(CCOC(=O)C(O)(c2ccccc2)c2ccccc2)CC1`, the inhibition was inactive: -9.24%.

As for `COc1ccc(NC2CCN(C(=O)OC(C)(C)C)CC2)cc1`, the inhibition is active: 86.1%. Regarding `O=C(NCC1(N2CCCCC2)CCCCC1)c1cccc(C(F)(F)F)c1`, the inhibition is inactive: 1.07%.

Consider `CCN1CCC(Nc2ccc(Cl)cc2)CC1`, for which the inhibition was inactive: 48%. As for `N#CC1(Nc2ccccc2)CCN(CCc2ccccc2)CC1`, the inhibition was inactive: -33.5%.

As for `O=C(NCC1(N2CCCCC2)CCCCC1)c1cccc([N+](=O)[O-])c1`, the inhibition was inactive: 7.16%. The same measure for `CCCOc1ccc(C(=O)NCC2(N(C)C)CCCCC2)cc1OC`: inactive: -2.04%; for `O=C(NCC1(N2CCCCC2)CCCCC1)c1cncc(Br)c1`: inactive: -7.73%; for `CN1CCC(Nc2cccc(F)c2)CC1`: inactive: 24.6%. Take `COc1cc(OC)c(C(=O)NCC2(N(C)C)CCCCC2)cc1OC`: the inhibition is inactive: -9.22%. As to `O=C(NCC1(N2CCOCC2)CCCCC1)c1cc(F)c(F)cc1Cl`, the inhibition was inactive: -7.02%. The same measure for `COc1ccc(CN(CCCl)CCCl)cc1Cl`: inactive: 69.6%.
